Experimental data taken from patent US20050124032A1 (priority 2002, published 2005).

Legend:
X. dendrorhous = experiment: Fermentation of X. dendrorhous in an 800-litre fermenter with addition of duroquinone; settings: 50 μM duroquinone
X. dendrorhous Y-2476 = experiment: Flask fermentation of X. dendrorhous with compounds added to the culture medium; format: cell-based, Xanthophyllomyces dendrorhous; settings: for Astaxanthin yield with the compound added to the culture medium / Astaxanthin yield relative to the original culture medium R4-20: flask fermentation, duroquinone 25-50 μM, retinal 35 μM, trisporic acids 50-100 μg/ml; for Astaxanthin yield with the compound added to the culture medium: 6-7 days, glutamate 5.5 mg/ml; for Astaxanthin yield relative to the original culture medium R4-20: FIG. 6, glutamate 5.5 mg/ml instead of cottonseed flour
[1] = duroquinone 25-50 μM added during first 24 hours of fermentation

| Compound | Increase in astaxanthin yield (X. dendrorhous) | Increase of the yield of astaxanthin (X. dendrorhous Y-2476; [1]) | Overall increase in specific productivity of the biomass (X. dendrorhous Y-2476; [1]) | Astaxanthin yield with the compound added to the culture medium (X. dendrorhous Y-2476) | Astaxanthin yield relative to the original culture medium R4-20 (X. dendrorhous Y-2476) |
| --- | --- | --- | --- | --- | --- |
| CC1=C(C)C(=O)C(C)=C(C)C1=O [duroquinone] | 15-20% | 10-20% | 30-60% | at least 215 mg/l | increases in yield |
| CC1=C(/C=C/C(C)=C/C=C/C(C)=C/C=O)C(C)(C)CCC1 |  |  |  | at least 225 mg/l | increases in yield |
| glutamate |  |  |  | ≥ 180 mg/L | increases in yield |
| trisporic acids |  |  |  | ≥ 200 mg/L | increases in yield |
